Earlier results on one molecule are cited in patent US10065990B2, “Cyclic peptide compound, and preparation method, pharmaceutical composition and use thereof” (HANGZHOU GUANYU BIO-MEDICAL CO., LTD, priority 2013, dated 2018).

Sequences of proteins named here, by UniProt entry; tags and fusion partners are left off.
UniProt Q13547, whole entry: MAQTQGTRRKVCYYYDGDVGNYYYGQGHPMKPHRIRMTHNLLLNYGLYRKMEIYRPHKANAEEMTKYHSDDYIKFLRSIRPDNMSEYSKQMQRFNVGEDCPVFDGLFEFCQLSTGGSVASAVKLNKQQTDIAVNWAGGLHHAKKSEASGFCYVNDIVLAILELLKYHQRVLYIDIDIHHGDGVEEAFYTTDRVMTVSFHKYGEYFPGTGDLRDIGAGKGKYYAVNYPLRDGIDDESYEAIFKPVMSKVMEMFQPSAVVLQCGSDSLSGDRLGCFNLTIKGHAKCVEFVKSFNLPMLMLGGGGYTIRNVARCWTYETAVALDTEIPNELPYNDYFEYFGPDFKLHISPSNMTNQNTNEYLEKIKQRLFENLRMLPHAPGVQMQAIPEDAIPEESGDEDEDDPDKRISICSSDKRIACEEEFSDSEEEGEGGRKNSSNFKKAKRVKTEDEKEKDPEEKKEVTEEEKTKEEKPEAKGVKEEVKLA

The structures appear in SMILES notation.

The data set addresses HDAC1 (Homo sapiens, UniProt Q13547). To be noted: read-out: IC50 HDAC1, b (compounds of CN102391359A); Table 2, column b, comparison compounds of CN102391359A; cited from earlier work.

As usually defined, the IC50 is the midpoint of a concentration-inhibition curve. Regarding `C/C=C1\NC(=O)c2csc(n2)CNC(=O)C[C@@H](/C=C/CCSC(=O)CCCCCCC)OC(=O)[C@H](CSCC)NC1=O`, the IC50 was less than 100 nM.
